Laboratory results from patent publication US6955818B1, “Pour-on formulations” (Eli Lilly and Company, priority 1999, dated 2005).
Entries after “also recorded” stand apart in the source; their conditions may differ.

Legend:
Merino sheep skin = assay: Pour-on carrier/vehicle sheep skin irritation studies (histological scoring); format: in vivo
Experimental: Studies were conducted to investigate and characterise the changes occurring in Merino sheep skin following the application of a range of candidate pour-on formulation components in order to discern safe carriers. Chemicals, emollients, wool grease derivatives and a wide range of formulations were applied (in 1 mL volumes) to each of 18 sites on the back and flanks of 15 recently shorn Merino sheep.
In the first study, skin samples were collected at necropsy 3½weeks after application. In subsequent studies, skin samples were collected 2 weeks after application. Standard haematoxylin and eosin stained sections were prepared from each piece of treated skin. A histological scoring system was devised to allow comparison of treatments. Each skin was assessed for the degree of hyperkeratosis, acanthosis and inflammatory cell infiltrate of the superficial dermis and given a rating score from 0–15. A score of 0=no change through to a score of 15 for very severe damage. Normal skin scored 2–4, >4 was abnormal and >7 was very abnormal. Treatments yielding a score ? 4.5 were considered safe. […]

[1] = Example 5: diffusion of 14C-zeta-cypermethrin on sheep skin in a variety of carriers; settings: carrier with 10 mg/mL 14C-spiked zeta-cypermethrin, 1 mL/5 kg on backline of sheep; wool at 2, 7.5, 15 cm meridians up to day 14
Experimental: This study compared the amount and rate of diffusion of ^14C-labelled zeta-cypermethrin from the dorsal midline of sheep, when applied in wool grease, in an aqueous formulation and in a range of test carriers.
Each formulation was applied to the backline of three sheep at 1 mL/5 kg body weight. Wool was collected from three 12×12-mm squares chosen at random, along meridian lines drawn 2, 7.5 and 15 cm down the side of each sheep from the backline. The wool samples were collected at 1, 2, 4, 8, 11 and 14 days after treatment, and each day's samples were pooled. The clipped areas were also swabbed. At day 14 after treatment, the wool at the site of application was collected and back and perirenal fat samples were collected. The quantity of zeta-cypermethrin in each sample was measured by liquid scintillation counting.

[2] = Example 12: physical characteristics and freezing points of solvents and solvent combinations; format: physicochemical; settings: vehicle alone
Experimental: The physical characteristics of various individual solvents and solvent combinations were determined.

[3] = applied to skin of recently shorn Merino sheep, histology

Substance	skin irritancy / histological dermatitis (in words) (Merino sheep skin; [3])	Mean skin irritation scores (Merino sheep skin; 1 mL applied to skin of recently shorn Merino sheep, histological score 0-15 (0 no change, 15 very severe damage; normal 2-4, >4 abnormal, >7 very abnormal))	Mean skin irritation scores (Merino sheep skin; in vivo)	skin irritancy / histological dermatitis (in words) (Merino sheep skin; in vivo)	spread of zeta-cypermethrin from the backline (in words) [1]	freezing point [2]
propoxy 15 stearyl alcohol	mild to moderate dermatitis	–	–	–	–	–
cetearyl octanoate	mild to moderate dermatitis	4.3	–	–	–	–
glyceryl tri caprylate/caprate [GTCC]	–	–	2	non-irritant	modest spread; also recorded: better spread	−5 to −13 °C
